{"sequences": {"note": "Chains of the proteins cited; added tags and fusions are not shown.", "UniProt P51681, whole entry": "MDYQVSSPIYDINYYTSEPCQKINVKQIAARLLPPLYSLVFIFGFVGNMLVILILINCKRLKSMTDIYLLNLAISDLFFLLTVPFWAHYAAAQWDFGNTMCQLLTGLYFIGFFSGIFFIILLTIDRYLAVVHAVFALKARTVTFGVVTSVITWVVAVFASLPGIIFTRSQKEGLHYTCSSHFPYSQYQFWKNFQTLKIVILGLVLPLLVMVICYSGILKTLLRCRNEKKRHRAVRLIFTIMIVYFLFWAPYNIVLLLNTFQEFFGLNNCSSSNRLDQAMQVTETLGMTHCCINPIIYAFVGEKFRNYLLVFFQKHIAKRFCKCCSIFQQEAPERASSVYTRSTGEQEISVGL"}, "source": "paper PMC3137231", "about": "(ACS Medicinal Chemistry Letters, 2011)", "origin": "cited, not measured here", "molecular_target": "CCR5 (Homo sapiens, UniProt P51681)", "settings": "SPR; cited from earlier work", "note": "pKd: −log10 of the molar value.", "data": [{"substance": "Maraviroc", "values": [{"measurement": "pKd", "result": 7.60}]}]}
